Data taken from paper PMC7723054.
This is one part of the list.

T1: LIN28A (human?, UniProt Q9H9Z2 1-209)
T1 sequence: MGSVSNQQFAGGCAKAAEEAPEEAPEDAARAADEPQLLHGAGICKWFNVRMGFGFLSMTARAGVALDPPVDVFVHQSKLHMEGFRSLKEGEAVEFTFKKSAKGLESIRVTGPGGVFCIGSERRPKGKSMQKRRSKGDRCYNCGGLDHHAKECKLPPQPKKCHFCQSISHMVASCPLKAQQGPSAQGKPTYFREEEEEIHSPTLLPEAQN

T2: CIRBP (Homo sapiens, UniProt Q14011 1-172)
T2 sequence: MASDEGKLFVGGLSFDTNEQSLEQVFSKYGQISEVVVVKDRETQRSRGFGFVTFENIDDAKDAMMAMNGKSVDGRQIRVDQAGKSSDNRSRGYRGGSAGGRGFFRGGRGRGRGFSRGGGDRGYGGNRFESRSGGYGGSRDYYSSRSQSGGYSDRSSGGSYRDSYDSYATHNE

T3: DHX36 (Homo sapiens, UniProt Q9H2U1 1-1008)
T3 sequence: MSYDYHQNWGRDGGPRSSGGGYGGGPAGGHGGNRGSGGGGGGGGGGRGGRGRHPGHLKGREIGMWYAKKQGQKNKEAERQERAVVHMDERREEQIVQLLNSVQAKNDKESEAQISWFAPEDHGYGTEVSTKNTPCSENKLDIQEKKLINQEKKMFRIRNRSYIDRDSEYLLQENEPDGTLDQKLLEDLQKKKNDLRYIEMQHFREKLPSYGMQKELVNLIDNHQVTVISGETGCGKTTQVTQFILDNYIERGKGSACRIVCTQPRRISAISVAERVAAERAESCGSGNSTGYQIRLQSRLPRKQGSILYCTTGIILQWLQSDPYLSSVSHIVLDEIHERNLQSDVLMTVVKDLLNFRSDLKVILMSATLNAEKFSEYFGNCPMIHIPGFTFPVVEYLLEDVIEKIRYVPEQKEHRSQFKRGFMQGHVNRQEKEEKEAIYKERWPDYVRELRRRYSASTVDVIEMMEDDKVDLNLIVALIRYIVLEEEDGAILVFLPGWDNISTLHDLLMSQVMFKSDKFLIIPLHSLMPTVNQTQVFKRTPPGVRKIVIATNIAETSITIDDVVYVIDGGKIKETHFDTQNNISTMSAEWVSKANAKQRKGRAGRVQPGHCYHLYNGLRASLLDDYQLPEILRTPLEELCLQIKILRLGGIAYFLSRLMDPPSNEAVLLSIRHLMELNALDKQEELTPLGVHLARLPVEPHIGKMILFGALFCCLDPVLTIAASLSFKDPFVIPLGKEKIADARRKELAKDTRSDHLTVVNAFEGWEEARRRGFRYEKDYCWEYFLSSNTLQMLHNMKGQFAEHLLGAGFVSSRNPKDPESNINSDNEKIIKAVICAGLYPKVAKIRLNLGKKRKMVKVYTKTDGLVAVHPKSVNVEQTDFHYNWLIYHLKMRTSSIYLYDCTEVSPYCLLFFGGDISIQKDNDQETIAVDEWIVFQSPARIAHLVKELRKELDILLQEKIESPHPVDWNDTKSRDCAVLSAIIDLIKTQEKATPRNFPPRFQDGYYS

B1: hsa-mir-4492 (structured_RNA)
RNA: GGGAAAUGGGCAUACGCUCACGGUUAUUGGUGUACGAAGUUUCAGCCCCCGCGCGCGGACAGACACACGGACAAGUCCCGCCAGGGGGCUGAAGCUUCGUGCAC
B2: hsa-mir-3193 (structured_RNA)
RNA: GGGCAACGCUCCGACUGAGCAUAGUGUAGGUGUACGAAGUUUCAGCAGUGGACGAGUCUCAUUAGCUGAAGCUUCGUGCAC
B3: hsa-mir-6816 (structured_RNA)
RNA: GGGAGAAAUAGGGGCCACCAGGCUCAAUGGUGUACGAAGUUUCAGCCUGCAGGGACUGUGACACUGAAGCUGAAGCUUCGUGCAC
B4: r(CUG)16:28 (structured_RNA)
RNA: GGGACGCCACGUGCGCUUACAAUAAUAGGGUGUACGAAGUUUCAGCCUGCUGCUGCUGCUGCUGCUGCUGCUGCUGCUGCUGCUGCUGCUGCUGGCUGAAGCUUCGUGCAC
B5: hsa-mir-196a-1 (structured_RNA)
RNA: GGGACCAUUGCGGGAUGUCUGAUGGUCUGGUGUACGAAGUUUCAGCGGGCCUGGGUUUCUGAACACGCUGAAGCUUCGUGCAC
B6: hsa-mir-4284 (structured_RNA)
RNA: GGGAUCACAGCCUCGGAAGCUAUACGUAGGUGUACGAAGUUUCAGCAUCAAAGUGGGGACUCAUGGGGAGAGGCUGAAGCUUCGUGCAC
B7: hsa-mir-4737 (structured_RNA)
RNA: GGGACGAGUGGCAUUCUUUACGUCGCCCGGUGUACGAAGUUUCAGCAGUGCCUCACAGCCGCACAGGACCGAGGAUGCUGCUGAAGCUUCGUGCAC
B8: hsa-let-7b (structured_RNA)
RNA: GGGAGUUUGAAAUUGAUCGCACCAGGCCGGUGUACGAAGUUUCAGCGUGGUUUCAGGGCAGUGAUGUUGCCCCUCGGAAGAUAACUAUGCUGAAGCUUCGUGCAC
B9: hsa-mir-3689c (structured_RNA)
RNA: GGGAACGAGGCUGUUAACAUACUGGCUUGGUGUACGAAGUUUCAGCCUGGGAGGUGUGAUAUCGUGGUUCCUGGGCUGAAGCUUCGUGCAC
B10: hsa-mir-204 (structured_RNA)
RNA: GGGAGCCGCGGGGAUUUAACUUGUCAUCGGUGUACGAAGUUUCAGCAUGCCUGAGAAUAUAUGAAGGAGGCUGCUGAAGCUUCGUGCAC
B11: hsa-mir-4524b (structured_RNA)
RNA: GGGAGACUAUUAGCUCGGGCAUUUAAGCGGUGUACGAAGUUUCAGCUCUCAAAAUAAUUCUGCAGUGAGAGCUGAAGCUUCGUGCAC
B12: hsa-mir-3137 (structured_RNA)
RNA: GGGAACAGGGUUGAAACGAACCCGGUUUGGUGUACGAAGUUUCAGCGGGUGUAUGGUAUAGGGGUAGCCUGCUGAAGCUUCGUGCAC

Columns and labels:
Experiment in all cases: FOREST: bead pull-down of RNA structure library v1, barcode microarray; U1A/LIN28A: 20 mM HEPES pH 7.5, 80 mM KCl, 20 mM NaCl, 10% glycerol, 2 mM DTT, 0.1 ug/uL BSA, 4 C; BG4/CIRBP/DHX36: 10 mM Tris-HCl pH 7.5, 100 mM KCl (or LiCl),; high values mean tight binding
U1A = U1A (Homo sapiens, UniProt P09012)
LIN28A = biological target: T1, LIN28A
CIRBP = biological target: T2, CIRBP
DHX36 = biological target: T3, DHX36

Row | Binder | binding signal (U1A) | binding signal (LIN28A) | binding signal (CIRBP) | binding signal (DHX36)
1 | B1 | 1.58 z-score | -0.616 z-score | -1.16 z-score | -0.0067 z-score
2 | B2 | 1.58 z-score | 0.464 z-score | 0.108 z-score | 1.26 z-score
3 | B3 | 1.57 z-score | 0.271 z-score | -0.833 z-score | 0.0208 z-score
4 | B4 | 1.57 z-score | 0.144 z-score | -1.45 z-score | -0.277 z-score
5 | B5 | 1.57 z-score | 0.216 z-score | -0.117 z-score | -0.886 z-score
6 | B6 | 1.56 z-score | 1.09 z-score | 1.18 z-score | 3.9 z-score
7 | B7 | 1.56 z-score | -0.255 z-score | -0.221 z-score | -0.0209 z-score
8 | B8 | – | 2.82 z-score | -0.191 z-score | 0.583 z-score
9 | B9 | – | 2.46 z-score | -0.227 z-score | 0.532 z-score
10 | B10 | – | 2.45 z-score | 1.02 z-score | 0.913 z-score
11 | B11 | – | 2.43 z-score | 0.822 z-score | 0.255 z-score
12 | B12 | – | 2.4 z-score | 0.445 z-score | 2.1 z-score
